From patent US20250356957A1, “EMULATOR OF SUBCUTANEOUS ABSORPTION AND RELEASE” (UNIVERSITY OF KANSAS, priority 2022, published 2025)
Read-outs that look alike come from different tables or passages of the source.

Settings: 0.5-mL injection of 30 mg/mL solution

**Q.** Which “release fraction (%)” value (2.5-mg/mL HA solution) does the source give for Bovine serum albumin [BSA] here?
**A.** ~28%

**Q.** What about the “release fraction (%)” value (5-mg/mL HA solution) of the same substance?
**A.** ~21%

**Q.** What about the “release fraction (%)” value (7.5-mg/mL HA solution) of the same substance?
**A.** ~24%

**Q.** What about the “release fraction (%)” value (subcutaneous chamber filled with PBS) of the same substance?
**A.** ~52%
